Legend:
[1] = molecular target: T1, recombinant human TNFα (human, UniProt P01375 77-233); experiment: cell-based or functional assay
[2] = molecular target: T1, recombinant human TNFα; experiment: inhibition ELISA: biotinylated human TNFα pre-incubated with serially diluted infliximab, binding of unblocked TNFα to coated TNFRI-Fc detected

Sequences of proteins named here, by UniProt entry; tags and fusion partners are left off. Residues count along the entry.
UniProt P01375, 77-233 limits assumed: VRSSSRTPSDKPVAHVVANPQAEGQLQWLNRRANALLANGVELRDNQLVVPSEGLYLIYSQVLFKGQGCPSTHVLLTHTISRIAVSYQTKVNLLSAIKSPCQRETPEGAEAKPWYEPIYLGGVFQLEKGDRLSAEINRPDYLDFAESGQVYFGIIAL

IC50 (read off the curve) (L929 assay, % growth) [1]: ~0.007 µg/mL | IC50 (read off the curve) [2]: ~0.05 µg/mL
B1: infliximab (antibody, V domains shown)
VH: EVKLEESGGGLVQPGGSMKLSCVASGFIFSNHWMNWVRQSPEKGLEWVAEIRSKSINSATHYAESVKGRFTISRDDSKSAVYLQMTDLRTEDTGVYYCSRNYYGSTYDYWGQGTTLTVSS
VL: DILLTQSPAILSVSPGERVSFSCRASQFVGSSIHWYQQRTNGSPRLLIKYASESMSGIPSRFSGSGSGTDFTLSINTVESEDIADYYCQQSHSWPFTFGSGTNLEVKR

— patent US20230272059A1 (TILLOTTS PHARMA, published 2023)
